Among the data in ChEMBL document CHEMBL1139552, “Naphthamidine urokinase plasminogen activator inhibitors with improved pharmacokinetic properties” (Bioorg Med Chem Lett, 2005) are Ki values, retold here.

Sequences of proteins named here, by UniProt entry; tags and fusion partners are left off. Residues count along the entry.
UniProt P00747, 97-580 limits assumed: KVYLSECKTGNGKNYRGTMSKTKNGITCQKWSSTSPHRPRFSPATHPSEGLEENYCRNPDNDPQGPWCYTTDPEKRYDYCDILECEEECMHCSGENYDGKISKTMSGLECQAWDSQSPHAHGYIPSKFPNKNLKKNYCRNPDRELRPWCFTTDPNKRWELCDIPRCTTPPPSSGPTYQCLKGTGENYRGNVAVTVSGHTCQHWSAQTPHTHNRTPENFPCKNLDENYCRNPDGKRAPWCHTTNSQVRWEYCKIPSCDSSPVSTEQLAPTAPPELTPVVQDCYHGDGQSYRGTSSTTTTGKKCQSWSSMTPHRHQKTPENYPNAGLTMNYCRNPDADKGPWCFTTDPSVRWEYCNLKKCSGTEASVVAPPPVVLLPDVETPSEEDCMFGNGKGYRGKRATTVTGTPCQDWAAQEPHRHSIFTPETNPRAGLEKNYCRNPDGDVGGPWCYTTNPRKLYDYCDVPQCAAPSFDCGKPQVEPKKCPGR
UniProt P00747, 581-810 limits assumed: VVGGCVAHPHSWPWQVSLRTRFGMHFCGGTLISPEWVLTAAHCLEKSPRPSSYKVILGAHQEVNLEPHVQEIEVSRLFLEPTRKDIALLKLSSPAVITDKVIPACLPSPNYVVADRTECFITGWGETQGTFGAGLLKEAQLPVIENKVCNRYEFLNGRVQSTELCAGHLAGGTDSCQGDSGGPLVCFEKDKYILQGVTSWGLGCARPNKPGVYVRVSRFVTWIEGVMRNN

Molecules are shown by their SMILES.

Experiment [1] concerns the target Urokinase-type plasminogen activator (Homo sapiens, UniProt P00749).
A further experiment has as its target Plasminogen (Homo sapiens, UniProt P00747). Kind of experiment: Binding affinity value against plasmin.

As to `CC(C)C1=NCCc2ccc(C3CC3c3ccc4cc(C(=N)N)ccc4c3)cc21` (centres undefined), in experiment [1], the Ki was found to be 139 nM.
Regarding `N=C(N)c1ccc2cc(CCc3ccccc3)cc(Nc3ncccn3)c2c1`, the Ki in experiment [1] is 47 nM.
Molecule `CC(C)C1=NCCc2ccc([C@@H]3CC3c3ccc4cc(C(=N)N)ccc4c3)cc21` (some centres undefined) showed a Ki in experiment [1] of 380 nM.
In the case of `N=C(N)c1ccc2cc(CCc3ccccc3)cc(Br)c2c1`, in experiment [1], the affinity, expressed as Ki, was 1370 nM.
`CC(C)C1=NCCc2ccc([C@H]3CC3c3ccc4cc(C(=N)N)ccc4c3)cc21` (some centres undefined) came in with a Ki in experiment [1] of 65 nM.
On the same count and under the same terms, under `N=C(N)c1ccc2cc(C3CC3c3ccccc3)cc(-c3ccoc3)c2c1` (centres undefined) stands 198 nM.
Regarding `N=C(N)c1ccc2cc(/C=C/c3ccccc3)ccc2c1`, the values for the Ki (at Plasminogen; in experiment [1]) were 1220 nM and 1200 nM, respectively.
In the case of `N=C(N)c1ccc2cc(C3CC3c3ccccc3)ccc2c1` (centres undefined), in experiment [1], the inhibitory constant (Ki) worked out at 1310 nM.

One may read the Ki as the equilibrium dissociation constant of an inhibitor or competing ligand from its target. Higher therefore signals a looser hold on the target.
